“And” between values parts separate entries of the source, which are not always exact repeats. Equal entries are not always repeated.
How the values were obtained:
[1] = Intravital two-photon imaging of hepatic transport after tail vein injection; conditions: for Half-life: liver
[2] = Intravital two-photon imaging of intestinal transport (duodenum, capillaries to lacteal); conditions: for Half-life: intestine
[3] = Intravital two-photon imaging of glomerular filtration and tubular transport in the kidney; conditions: for Tmax: individual renal tubule
[4] = tubular lumina, range over imaged tubules

Substance: dextran
- Enrichment in the LSEC/space of Dissé ([1]; after tail vein injection): no enrichment
- Time after injection until detectable in the bile canaliculi ([1]; after tail vein injection): Approximately 15 min
- Half-life ([1]; LSEC/Dissé space): 1149 s
- Half-life ([1]; sinusoids, fluorescence intensity after tail vein injection (CLF 2.5 mg/kg, dextran 30 mg/kg)): 954 s and 954.6 s
- Appearance in the liver sinusoids after tail vein injection ([1]; time after tail vein injection): 15 s
- Transfer from intestinal blood capillaries into lymphatic vessels (lacteals), blood-lacteal barrier ([2]; after intravenous injection): efficiently taken up into lymphatic vessels
- Transport from intestinal capillaries into intestinal crypt cells and secretion into the intestinal lumen ([2]; after intravenous injection): No transport
- Transfer from intestinal blood capillaries into lymphatic vessels (lacteals), blood-lacteal barrier ([2]; after intravenous injection, listed as Dextran): crossed the blood-lacteal barrier within seconds
- Half-life ([2]; blood vessels): 14.32 min
- Half-life ([2]; lymph vessels, nd = no detected decrease in fluorescence within the recording time of 4 min (CLF)): 35.01 min
- Fluorescence intensity in the distal tubules compared to the proximal tubules ([3]; CLF: approximately 9 min after injection, versus highest intensity in proximal tubules): approximately sixfold
- Tmax ([3]; Fig. 7, Tubule: 1): 34.8 s
- Tmax ([3]; Fig. 7, Tubule: 2): 31.2 s
- Tmax ([3]; Fig. 7, Tubule: 3): 39 s
- Tmax ([3]; Fig. 7, Tubule: 4): 25.8 s
- Tmax ([3]; Fig. 7, Tubule: 5): 25.2 s
- Tmax ([3]; Fig. 7, Tubule: 6): 25.8 s
- Tmax ([3]; Fig. 7, Tubule: 7): 66 s
- Tmax ([3]; Fig. 7, Tubule: 8): 43.2 s
- Tmax ([3]; Fig. 7, Tubule: 9): 78 s
- Tmax ([3]; Fig. 7, Tubule: 10): 66 s
- Tmax ([3]; Fig. 7, Tubule: 11): 67.2 s
- Tmax ([3]; Fig. 7, Tubule: 12): 24 s
- Tmax ([3]; Fig. 7, Tubule: 13): 25.2 s
- Tmax ([3]; Fig. 7, Tubule: 14): 25.2 s
- Tmax ([3]; Fig. 7, Tubule: 15): 24 s
- Tmax ([3]; Fig. 7, Tubule: 16): 34.2 s
- Tmax ([3]; Fig. 7, Tubule: 17): 46.8 s
- Tmax ([3]; Fig. 7, Tubule: 18): 42 s
- Tmax ([3]; Fig. 7, Tubule: 19): 34.8 s
- Tmax ([3]; Fig. 7, Tubule: 20): 61.8 s
- Half-life ([3]; kidney, Bowman's space): 394 s
- Half-life of filtration into Bowman's space compared to CLF ([3]; kidney, Bowman's space, dextran versus CLF): threefold
- Half-life ([3]; kidney, glomerular capillaries): 1052 s
- Half-life ([3]; kidney, proximal tubule): 637.2 s
- Time to maximum (T max) fluorescence, distal tubules [3, 4]: 61.8 to 78 s
- Time to maximum (T max) fluorescence, proximal tubules [3, 4]: 24 to 46.8 s

Source: publication PMC5316407, “In vivo imaging of systemic transport and elimination of xenobiotics and endogenous molecules in mice” (Archives of Toxicology, 2016)
